ChEMBL document CHEMBL4270596, “Discovery of a potent non-oxime reactivator of nerve agent inhibited human acetylcholinesterase” (2018)

Key:
[1] = Stability of the compound in phosphate buffer up to 24 hrs
[2] = Stability of the compound in pH 7.4 phosphate buffer measured over 24 hrs by LC-MS analysis; conditions: pH 7.4, 24 h
[3] = Stability of the compound in pH 7.4 phosphate buffer measured over 24 hrs by 1H-NMR analysis; conditions: pH 7.4, 24 h

Structure (SMILES) | Stability [1] | Stability [2] | Stability [3]
CCOP(=O)(OCC)Oc1ccc(N)cc1CN1CCCC1 | Stable |  | 
Cl.Cl.Nc1ccc(O)c(CN2CCCC2)c1 |  | Stable | Stable
